Reference: PMC6592956, “Characterization of Porcine Hepatic and Intestinal Drug Metabolizing CYP450: Comparison with Human Orthologues from A Quantitative, Activity and Selectivity Perspective” (Scientific Reports, 2019)

Test system: porcine hepatic CYP450 enzymes
Assay: Stepwise multiple linear regression of probe activity on CYP450 protein concentrations and on other metabolites
Settings: Dependent Variable: OH_CZ, Concentration 6, with enzymes

B1: CYP2E1_s (protein, UniProt P79383 1-495, looked up)
Cytochrome P450 2E1: MTALGITVALLVWLVTLLLISIWKHIHSSWKLPPGPFPLPIVGNIFQLDLKNIPKSFTMLAERYGPVFTVYLGSRRIVVLHGYKAVKEVLLHYKNEFSGRGEIPTFQVHKDKGVIFNNGPTWRDTRRFSLTTLRDFGMGKQGNEQRIQREAHFLLEALRKTHGQPFDPTFLIGCAPCNVISDILFRQHFDYNDKTCLRLMSMFNENFYLLSTGWIQLYNNFSGYLRYLPGSHRKLMKNISEIKDYALERVKDHRDSLEPSCPRDFTDTLLMEMEKEKYSAEPIYTLDNIAVTVADMFFAGTETTSTTLRYGLLILMKYPEVEEKLHEEIDRVIGPNRIPAIKDRLVMPYLDAVVHEIQRFIDLIPSNLPHEATRDTDFRDYIIPKGTVVIPTLDSVLYDSQEFPEPEKFKPEHFLNENGKFKYSDHFKAFSAGKRVCVGEGLARMELFLFMAAILQHFNLKSLVDPKDIDLSPIAIGFAKIPPHYKLCVIPRSQV
Model 1, predictor CYP2E1_s
  Unstandardized Coefficients B: 95,371
Model 2, predictors CYP2E1_s, CYP2A19_s
  Unstandardized Coefficients B: 113,525
Model 3, predictors CYP2E1_s, CYP2A19_s, CYP2C49_s
  Unstandardized Coefficients B: 91,073
